{"source": "ChEMBL document CHEMBL5634075", "about": "“An electrophilic fragment screening for the development of small molecules targeting caspase-2” (Eur J Med Chem, 2023)", "tested_on": "HepG2", "experiment": "Induction of GSH depletion in human HepG2 cells measured after 22 hrs by GSH-glo luminescence assay", "assay_type": "functional, cell-based"}
{"smiles": "Cc1nc(-c2ccc3c(c2)CCN3C(=O)CCl)cs1", "values": [{"measurement": "Activity", "result": "Dose-Dependent Effect"}]}
